The numbers were not newly measured in patent US20050089581A1, “Magnesium-containing compositions and methods for enhancing dehydroepiandrosterone levels” (priority 2003, published 2005), which cites them from elsewhere.

The subject of this data set is DHEA levels. Conditions: oral administration.

As for magnesium taurate, the absorption result is given as “difficult to absorb”.
